# Laboratory results taken from patent US8569343B2, “Oligomer-opioid agonist conjugates” (Nektar Therapeutics, priority 2007, dated 2013).
# Chains of the proteins cited; added tags and fusions are not shown. Lines headed by an entry give the natural chain unless they say otherwise; changes in a name come on top.
# UniProt P41145: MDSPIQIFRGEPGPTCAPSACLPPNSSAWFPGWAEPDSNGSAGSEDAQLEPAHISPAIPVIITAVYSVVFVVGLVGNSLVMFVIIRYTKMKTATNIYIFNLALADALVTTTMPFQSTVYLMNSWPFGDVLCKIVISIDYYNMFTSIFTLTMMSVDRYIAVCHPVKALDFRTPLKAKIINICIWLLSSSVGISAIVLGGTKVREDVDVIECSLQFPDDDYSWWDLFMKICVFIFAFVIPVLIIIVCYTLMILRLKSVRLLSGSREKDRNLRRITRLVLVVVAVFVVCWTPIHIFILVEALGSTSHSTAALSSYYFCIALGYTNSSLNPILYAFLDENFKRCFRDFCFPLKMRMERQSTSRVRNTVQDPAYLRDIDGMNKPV
# Target: T1, cloned human kappa opioid receptor (Homo sapiens, UniProt P41145)
# T1 construct: expressed in transfected cells; host or cells: CHO cells
# Assay type: cell-based
row,Substance,EC50 [µM]
1,α-6-mPEG3-O-codeine,> 500
2,α-6-mPEG7-O-codeine,> 500
3,α-6-mPEG9-O-codeine,> 500
